Values quoted from earlier work as cited in patent publication US20110039809A1 (priority 2008, published 2011).

Details: 10′000 IU; Hathcock et al. 2007; cited from earlier work

For Vitamin D, the Safe upper level is given as “at least 250 μg/day”.
